# The list shows a part of the results, in another mix than the full data. Calls of active or inactive are those of the source.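 The calls were made as follows: active = percentage of spot-positive cells more than 3 SD above its plate mean, without a fluorescence outlier flag or 80% toxicity; inconclusive = no clear call, values can overlap the other calls; inactive = the rest.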
# Test: autophagy modulators in MEF cells, primary screen, imaging, high-content, MEF GFP-LC3 (AID 463193);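 also: spot-positive cell cutoff set from DMSO-treated cells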
# Settings: MEF GFP-LC3 puncta imaging, at 10 µM, stronger effect = higher value
row,Structure (SMILES),% cells with GFP-LC3 spots
1,CP(=O)(Nc1cccc(Br)c1)Oc1ccccc1 (stereo unspecified),inactive: 13.2%
